Laboratory results taken from ChEMBL document CHEMBL2021856 (ACS Med Chem Lett, 2011).

The chains behind the UniProt entries cited, without tags or fusion partners. Where a name states a change or a piece, a line headed by the entry shows the natural chain unless it says otherwise.
UniProt P28223, whole entry: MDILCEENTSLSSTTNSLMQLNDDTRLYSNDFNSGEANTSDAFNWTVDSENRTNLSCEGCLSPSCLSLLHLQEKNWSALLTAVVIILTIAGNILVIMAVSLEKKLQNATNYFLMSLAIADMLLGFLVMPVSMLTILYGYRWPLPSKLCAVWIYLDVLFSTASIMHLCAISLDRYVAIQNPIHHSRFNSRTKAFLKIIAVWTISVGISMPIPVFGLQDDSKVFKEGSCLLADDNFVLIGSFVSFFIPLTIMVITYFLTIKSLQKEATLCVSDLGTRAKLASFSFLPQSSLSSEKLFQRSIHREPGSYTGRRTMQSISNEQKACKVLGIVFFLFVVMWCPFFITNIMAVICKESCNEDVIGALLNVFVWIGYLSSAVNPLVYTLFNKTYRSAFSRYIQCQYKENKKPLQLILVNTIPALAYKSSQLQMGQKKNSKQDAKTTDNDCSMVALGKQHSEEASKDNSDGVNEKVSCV
UniProt P41595, whole entry: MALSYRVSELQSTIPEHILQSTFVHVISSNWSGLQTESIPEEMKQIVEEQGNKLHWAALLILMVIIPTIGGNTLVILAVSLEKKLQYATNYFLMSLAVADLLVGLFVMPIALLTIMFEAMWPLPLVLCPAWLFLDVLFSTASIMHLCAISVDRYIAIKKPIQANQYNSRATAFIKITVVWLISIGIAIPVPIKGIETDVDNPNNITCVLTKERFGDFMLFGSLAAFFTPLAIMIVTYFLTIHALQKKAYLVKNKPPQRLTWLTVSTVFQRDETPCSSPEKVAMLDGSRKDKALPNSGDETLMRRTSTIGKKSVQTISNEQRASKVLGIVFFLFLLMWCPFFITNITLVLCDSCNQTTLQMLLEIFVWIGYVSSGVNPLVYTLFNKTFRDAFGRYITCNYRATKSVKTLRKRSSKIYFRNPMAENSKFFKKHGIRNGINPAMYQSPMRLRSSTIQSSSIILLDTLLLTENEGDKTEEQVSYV
UniProt P28335: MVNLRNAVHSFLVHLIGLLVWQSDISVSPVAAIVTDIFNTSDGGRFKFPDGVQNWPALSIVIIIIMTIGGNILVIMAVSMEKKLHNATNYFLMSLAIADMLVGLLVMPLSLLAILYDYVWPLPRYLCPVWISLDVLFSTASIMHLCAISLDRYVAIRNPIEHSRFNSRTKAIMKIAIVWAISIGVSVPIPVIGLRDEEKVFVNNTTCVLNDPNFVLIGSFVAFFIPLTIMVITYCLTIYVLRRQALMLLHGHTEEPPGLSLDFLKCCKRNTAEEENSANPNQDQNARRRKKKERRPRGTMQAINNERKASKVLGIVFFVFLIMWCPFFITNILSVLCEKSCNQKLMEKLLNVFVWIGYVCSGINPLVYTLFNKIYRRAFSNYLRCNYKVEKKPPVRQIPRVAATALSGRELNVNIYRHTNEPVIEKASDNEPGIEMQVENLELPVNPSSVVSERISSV

Columns and labels:
Type in all cases: functional, cell-based
[1] = target: 5-hydroxytryptamine receptor 2A (Homo sapiens, UniProt P28223); assay: Agonist activity at human 5HT2A receptor expressed in HEK293 cells assessed as calcium flux measured every sec for 3 mins by FLIPR assay relative to 5HT
Outline: (§1)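 Calcium flux (Gαq-mediated) in HEK-293 cells stably expressing human 5-HT2A, 5-HT2B or 5-HT2C (INI isoform). […] Racemic trans mixtures were tested unless otherwise stated.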

[2] = target: 5-hydroxytryptamine receptor 2B (Homo sapiens, UniProt P41595); assay: Agonist activity at human 5HT2B receptor expressed in HEK293 cells assessed as calcium flux measured every sec for 3 mins by FLIPR assay relative to 5HT; outline: as §1
[3] = target: 5-hydroxytryptamine receptor 2C (Homo sapiens, UniProt P28335); assay: Agonist activity at human 5HT2C receptor expressed in HEK293 cells assessed as calcium flux measured every sec for 3 mins by FLIPR assay relative to 5HT; outline: as §1

SMILES	Emax [1] [%]	Emax [2] [%]	Emax [3] [%]
Cl.NC[C@@H]1C[C@H]1c1ccccc1OCC1CC1	0	4	–
NC[C@H]1C[C@@H]1c1ccccc1OCC1CC1	1	1	–
COc1ccc(-c2cccc(C)c2)cc1[C@H]1C[C@@H]1CN.Cl (racemic)	16	1	–
COc1ccc(-c2ccc(C)cc2)cc1[C@H]1C[C@@H]1CN.Cl (racemic)	20	1	19
COc1ccc(-c2ccccc2F)cc1[C@H]1C[C@@H]1CN.Cl (racemic)	21	1	–
COc1ccc(-c2cccc(F)c2)cc1[C@H]1C[C@@H]1CN.Cl (racemic)	18	2	–
COc1ccc(-c2ccc(F)cc2)cc1[C@H]1C[C@@H]1CN.Cl (racemic)	20	8	–
CCCCc1ccc(-c2ccc(OC)c([C@H]3C[C@@H]3CN)c2)cc1.Cl (racemic)	15	1	22
Cc1ccc(OCC(C)C)c([C@H]2C[C@@H]2CN)c1.Cl (racemic)	3	2	24
CCCOc1ccccc1[C@H]1C[C@@H]1CN.Cl (racemic)	1	–	–
CC(C)COc1ccccc1[C@H]1C[C@@H]1CN.Cl (racemic)	1	0	–
CCCCCOc1ccccc1[C@H]1C[C@@H]1CN.Cl (racemic)	7	3	6
Cl.NC[C@H]1C[C@@H]1c1ccccc1OCC1CCC1 (racemic)	1	3	–
Cl.NC[C@H]1C[C@@H]1c1ccccc1OCC1CCCCC1 (racemic)	0	1	1
Cl.NC[C@H]1C[C@@H]1c1ccccc1OCc1ccccc1 (racemic)	0	–	–
COc1ccc(-c2ccccc2)cc1[C@H]1C[C@@H]1CN.Cl (racemic)	18	2	–
COc1ccc(-c2ccccc2C)cc1[C@H]1C[C@@H]1CN.Cl (racemic)	23	2	–
NC[C@H]1C[C@@H]1c1ccccc1OCC1CC1 (racemic)	0	2	–
